Laboratory results: patent US20230054379A1, “COMPOSITION AND METHOD OF TREATMENT TO SIMU[…] THE […] EFFICACY OF OPIOIDS AND REDUCE THEIR ADDICTIVE POWER” (Centro de Investigacion Y Desarrollo de Medicamentos (CIDEM), priority 2020, published 2023)

Columns and labels:
[1] = Mechanical allodynia dose-response in CCI rats (von Frey filaments, % MPE); format: in vivo, rat; conditions: morphine 5 mg/kg s.c.; first administration, 7 days post-CCI
[2] = Thermal hypernociception in CCI rats (Hargreaves test, % MPE); format: in vivo, rat; conditions: morphine 5 mg/kg s.c.; first administration, 7 days post-CCI

CN1CC[C@]23c4c5ccc(O)c4O[C@H]2[C@@H](O)C=C[C@H]3[C@H]1C5 [morphine, reference compound]
% MPE, mechanical allodynia [1]: 75.30±16.2%
% MPE, thermal hypernociception [2]: 75.32±15.9%
